Reference: ChEMBL document CHEMBL5512638, “Novel pyrrole based CB2 agonists: New insights on CB2 receptor role in regulating neurotransmitters' tone” (Eur J Med Chem, 2024)
Active and inactive are the calls of the source. The rule behind the calls is not given here.

Chains of the proteins cited; added tags and fusions are not shown. Lines headed by an entry give the natural chain unless they say otherwise; changes in a name come on top.
UniProt P47936: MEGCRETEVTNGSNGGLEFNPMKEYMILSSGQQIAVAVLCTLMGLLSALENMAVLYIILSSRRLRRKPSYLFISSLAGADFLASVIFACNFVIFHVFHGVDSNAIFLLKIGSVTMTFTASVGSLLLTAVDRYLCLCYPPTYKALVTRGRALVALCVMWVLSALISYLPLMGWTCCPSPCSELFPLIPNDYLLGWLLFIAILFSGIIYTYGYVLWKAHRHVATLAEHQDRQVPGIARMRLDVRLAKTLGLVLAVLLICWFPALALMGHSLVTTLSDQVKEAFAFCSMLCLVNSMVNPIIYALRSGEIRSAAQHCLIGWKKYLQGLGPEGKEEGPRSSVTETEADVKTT
UniProt O75762, whole entry: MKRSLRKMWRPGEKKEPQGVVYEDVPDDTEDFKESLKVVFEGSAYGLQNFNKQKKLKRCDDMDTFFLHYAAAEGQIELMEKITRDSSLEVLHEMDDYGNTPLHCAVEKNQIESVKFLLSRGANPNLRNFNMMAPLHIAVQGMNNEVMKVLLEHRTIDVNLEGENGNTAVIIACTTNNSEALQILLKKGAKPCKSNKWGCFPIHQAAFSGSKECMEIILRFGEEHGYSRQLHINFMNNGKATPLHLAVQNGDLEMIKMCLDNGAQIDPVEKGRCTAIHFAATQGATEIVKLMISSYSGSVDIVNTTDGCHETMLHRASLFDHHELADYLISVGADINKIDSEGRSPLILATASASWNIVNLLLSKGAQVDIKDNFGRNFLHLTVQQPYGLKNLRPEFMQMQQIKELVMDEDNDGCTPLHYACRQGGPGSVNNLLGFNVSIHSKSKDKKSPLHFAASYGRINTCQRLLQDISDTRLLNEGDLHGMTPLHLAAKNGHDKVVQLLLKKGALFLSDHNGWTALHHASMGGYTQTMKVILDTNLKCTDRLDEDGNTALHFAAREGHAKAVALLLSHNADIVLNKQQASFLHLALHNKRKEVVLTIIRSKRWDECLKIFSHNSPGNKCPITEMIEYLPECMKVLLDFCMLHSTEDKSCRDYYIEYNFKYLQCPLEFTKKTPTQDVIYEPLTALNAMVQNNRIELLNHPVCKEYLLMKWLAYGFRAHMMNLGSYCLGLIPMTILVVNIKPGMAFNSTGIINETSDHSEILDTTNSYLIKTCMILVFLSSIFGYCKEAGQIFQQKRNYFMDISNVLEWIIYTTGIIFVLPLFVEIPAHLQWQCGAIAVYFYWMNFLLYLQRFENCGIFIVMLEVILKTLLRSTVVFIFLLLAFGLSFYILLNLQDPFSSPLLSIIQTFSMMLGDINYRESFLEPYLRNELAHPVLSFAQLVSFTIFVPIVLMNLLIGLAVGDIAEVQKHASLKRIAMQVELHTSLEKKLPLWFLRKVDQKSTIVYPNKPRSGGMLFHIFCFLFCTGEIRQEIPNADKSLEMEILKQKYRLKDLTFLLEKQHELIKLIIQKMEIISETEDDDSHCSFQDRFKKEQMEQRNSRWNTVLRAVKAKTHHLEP

What was measured:
[1] = molecular target: Cannabinoid receptor 2 (Mus musculus) (UniProt P47936); assay: Agonist activity at CB2 receptor in mouse spleen membrane assessed as reduction in forskolin-induced cAMP production at 0.1 to 10 uM incubated for 30 mins by LANCE ULTRA cAMP TR-FRET assay; format: functional, cell membranes; details: filed as agonist, dose 0.1-10 µM
[2] = molecular target: Transient receptor potential cation channel subfamily A member 1 (Homo sapiens) (UniProt O75762); assay: Activation of TRPA1 (unknown origin) upto 25 uM

Activity [1]: Active
Activity [2]: inactive
Structure (SMILES): O=C(Nc1cccc(-c2ccccc2)c1)c1cccn1Cc1ccc(F)cc1
